The record followed here is patent publication US6365373 (Genentech, dated 2002).

For experiment [1], the target named is T1, human trkC receptor immunoadhesin (trkC extracellular domain fused to immunoglobulin constant domains) (human, UniProt Q16288 32-429).
T1 construct: extracellular domain; not shown: immunoglobulin constant domains
As to the kind of experiment: competitive displacement of labeled NT-3 from human trkC immunoadhesin, 96-well plate.

Experiment [2] addresses T1, human trkC receptor immunoadhesin (trkC …). As to the kind of experiment: competitive displacement binding to human trkC immunoadhesin.

B1: NGF123 (ligand)
chain: SSSHPIFHRGEFSVCDSESLWVTDKTTAIDIKGKEVMVLGEVNINNSVFKQYFFETKCRDPNPVDSGCRGIDSKHWNSYCKTTQTFVKALTMDGKQAAWRFIRIDTACVCVLSRKAVRRA
In the case of B1, the IC50mut/IC50NT-3 in experiment [1] is 17.9 ratio.

B2: NGF124 (ligand)
chain: SSSHPIFHRGEFSVCDSESLWVTDKTTATDIKGKEVMVLGEVNINNSVFKQYFFETKCRDPNPVDSGCRGIDSKHWNSQCKTTQTYVKALTMDGKQAAWRFIRIDTACVCVLSRKAVRRA
Molecule B2 had an IC50mut/IC50NGF12 in experiment [1] of 0.5 ratio.

B3: NGF125 (ligand)
chain: SSSHPIFHRGEFSVCDSESLWVTDKTTATDIKGKEVMVLGEVNINNSVFKQYFYETRCRDPNPVDSGCRGIDSKHWNSYCKTTQTFVKALTMDGKQAAWRFIRIDTACVCVLSRKAVRRA
B3: in experiment [1], the IC50mut/IC50NGF12 worked out at 0.9 ratio and the IC50mut/IC50NT-3 was 14 ratio.

B4: NGFR1 (ligand)
chain: SSSHPIFHRGEFSVCDSESLWVGDKTTATDIKGKEVMVLGEVNINNSVFKQYFFETKCRDPNPVDSGCRGIDSKHWNSYCKTTQTFVKALTMDGKQAAWRFIRIDTACVCVLSRKAVRRA
As for B4, in experiment [1], the IC50mut/IC50NGF12 stood at 242 ratio and the IC50mut/IC50NT-3 is 3560 ratio.

B5: NGF126 (ligand)
chain: SSSHPIFHRGEFSVCDSESLWVTDKTTATDIKGKEVMVLGEVNINNSVFKQYFFETKCRDPNPVDSGCRGIDSKHWNSYCKTTQTYVKALTMDGKQAAWRFIRIDTACVCVLSRKAVRRA
On to B5, for which the “improvement in binding to trkC compared to NGF12” value in experiment [2] was 4.5 fold. In experiment [1], the IC50mut/IC50NGF12 stood at 0.2 ratio and the IC50mut/IC50NT-3 stood at 3.3 ratio.
